# Tested on: human cardiomyocytes (Celprogen 36044-15at)
# Assay: LC-ESI-TOF-MS metabolomics of extracellular media of drug-treated human cardiomyocytes (Tables 2A-2C)
# Type: cell-based
# Details: 7.0ug.ml herceptin; for herfold1: set 1; for herfold2: set 2
# Experimental: Data for statistical analysis were extracted from chromatograms using the Agilent Mass Hunter software (Product No. G3297AA, Agilent Technologies, Inc., Santa Clara, Calif.); it will be understood that alternative statistical analysis methods can be used. Masses were binned together if they were within 10 ppm and eluted within a 2 minutes retention time window. A binned mass was considered to be the same molecule across different LC-ESI-TOF-MS analyses (referred to herein as an “exact mass,” which will be understood to be ±10 ppm). Binning of the data is required for statistical analysis and comparison of masses across the entire experiment. If multiple peaks with the same mass at the same retention time within a single sample were detected by Mass Hunter, they were averaged to assist data analysis. Masses lacking a natural isotopic distribution or with an absolute height of less than 1000 were removed from the data prior to analysis. It would be understood that the results from this assay provide relative values that are assessed according to annotated values within 10 ppm to provide an identity for the molecular weight detected. Thus, a mass shift within 10 ppm is considered consistent with determining the identity of a specific cellular metabolite previously annotated due to differences in ionization source and instrumentation, e.g. between different experiments or using different instruments.
# As used herein, a mass was considered to be the same across LC/ESI-TOF-MS runs using a simple algorithm that first sorts the data by mass and retention time. […] If a series of measurements fit this definition it was considered to be from the same compound. If either the mass or the retention time varied by more than the limits listed above it was considered to be a different compound and given a new unique designation.
# The data from the most reproducible mass features was log base 2 transformed and median centered prior to statistical analysis. […] To test the null hypothesis a one way permutation based t-test assuming a normal approximation of the conditional distribution was used and implement using the Conditional Inference Procedures in a Permutation Test Framework (Coin) library, a contributed package of programming code. Statistics tests were performed without replacement of missing values decrease the degrees of freedom rather than imputing missing values. […] False discovery rates (FDR) were controlled using the Q value estimator (Storey et al., 2003, Proc Natl Acad. Sci., 100:9440-5) and implemented using the qvalue library in R (Dabney et al., 2003, qvalue: Q-value estimation for false discovery rate control. R package version 1.10.0., www.CRAN.R-project.org).
# The extracellular media from treated and untreated cells was processed as described in Cezar et al., (2007, Stem Cells Development 16: 869-882, this publication is incorporated by reference), for extraction of low molecular weight molecules (<3 kD) for metabolomics analysis. Extracellular low molecular weight molecule preparations were separated by liquid chromatography followed by electrospray ionization time of flight (LC-ESI-TOF-MS) mass spectrometry for ionization and detection of the full spectra of low molecular weight molecules present in each sample. More specifically, the samples were separated using the ESI_Luna_HILIC—95_t—06OACN—16 min method (HILIC chromatography). Statistical differences were inferred by subsequent bioinformatics and in silico mapping of deisotoped ESI-TOF-MS mass features as described below (also provided in Cezar et al. (2007, id.)).
# Briefly, ionization (100 m/z-1500 m/z) was acquired on an Agilent 6520 Accurate-Mass Q-TOF in extended dynamic range and positive mode. Mass features were generated using two independent methods. First MassHunter Qualitative Analysis was used to generate mass features using the Molecular Feature Extraction algorithm (MFE).
# [1] = feature cpdID 36, neutral mass 101.1204, RT 0.720145, Triethylamine or Hexylamine
# [2] = feature cpdID 8902, neutral mass 276.1256, RT 8.733378, no hit
# [3] = feature cpdID 11232, neutral mass 311.1029, RT 7.400847, p-Glucosyloxymandelonitrile or (S)-4-Hydroxymandelonitrile beta-D-glucoside
# [4] = feature cpdID 14190, neutral mass 356.253, RT 1.103957, HMDB04239, 13,14-dihydro PGE1 or Prostaglandin F1alpha
# [5] = feature cpdID 16504, neutral mass 393.0913, RT 7.25538, no hit
# [6] = feature cpdID 16939, neutral mass 400.2796, RT 1.108613, 7-Ketocholesterol
# [7] = feature cpdID 19500, neutral mass 444.3034, RT 1.106333, 1,25-Dihydroxyvitamin D3-26,23-lactone
# [8] = feature cpdID 19704, neutral mass 448.1344, RT 7.184483, no hit
# [9] = feature cpdID 21926, neutral mass 488.3323, RT 1.106573, no hit
# [10] = feature cpdID 23129, neutral mass 515.181, RT 10.44297, no hit
# [11] = feature cpdID 23163, neutral mass 516.1241, RT 7.217222, Formononetin 7-O-glucoside-6″-O-malonate, Isochlorogenic acid b or 13-Dicaffeoylquinic acid
# [12] = feature cpdID 24142, neutral mass 538.2779, RT 0.783395, no hit
# [13] = feature cpdID 25561, neutral mass 575.2051, RT 7.271724, no hit
# [14] = feature cpdID 28720, neutral mass 661.1924, RT 6.495524, no hit
# [15] = feature cpdID 29101, neutral mass 672.1828, RT 6.528464, no hit
# [16] = feature cpdID 29227, neutral mass 676.1781, RT 1.298314, no hit
# [17] = feature cpdID 31637, neutral mass 744.1091, RT 1.26415, no hit
# [18] = feature cpdID 37905, neutral mass 932.2608, RT 6.542554, no hit
# [19] = feature cpdID 37938, neutral mass 933.3726, RT 8.330596, no hit
# [20] = feature cpdID 40510, neutral mass 1040.322, RT 6.499979, no hit
# [21] = feature cpdID 42137, neutral mass 1122.172, RT 1.256606, no hit
substance,measurement,setting,value
Herceptin: therapeutic HER2/ERBB2 monoclonal antibody (trastuzumab),herfold1,[1],−1.771 fold
same,herfold1,[2],−1.21 fold
same,herfold1,[3],−1.145 fold
same,herfold1,[4],1.138 fold
same,herfold1,"feature cpdID 15112, neutral mass 372.0557, RT […], no hit",−1.405 fold
same,herfold1,[5],−1.7268 fold
same,herfold1,[6],−1.086 fold
same,herfold1,[7],4.038 fold
same,herfold1,[8],−1.236 fold
same,herfold1,[9],1.09 fold
same,herfold1,[10],−1.096 fold
same,herfold1,[11],−1.371 fold
same,herfold1,[12],1.081 fold
same,herfold1,[13],1.224 fold
same,herfold1,[14],−1.142 fold
same,herfold1,[15],−1.02 fold
same,herfold1,[16],−305510 fold
same,herfold1,[17],1.342 fold
same,herfold1,[18],1.083 fold
same,herfold1,[19],−1.289 fold
same,herfold1,[20],1.225 fold
same,herfold1,[21],−32248 fold
same,herfold2,[1],1.711 fold
same,herfold2,[2],−1.489 fold
same,herfold2,[3],−1.2418 fold
same,herfold2,[4],−1.178 fold
same,herfold2,[5],−1.017 fold
same,herfold2,[6],−1.231 fold
same,herfold2,[7],3.489 fold
same,herfold2,[8],−1.279 fold
same,herfold2,[9],−1.11 fold
same,herfold2,[10],−1.1782 fold
same,herfold2,[11],−1.338 fold
same,herfold2,[12],−1.081 fold
same,herfold2,[13],1.234 fold
same,herfold2,"feature cpdID 25601, neutral mass 576.3861, RT 1.10751, 3-Hexaprenyl-4-hydroxy-5-methoxybenzoic acid",−1.101 fold
same,herfold2,"feature cpdID 27363, neutral mass 620.4117, RT 1.108317, no hit",−1.096 fold
same,herfold2,[14],1.388 fold
same,herfold2,[15],−1.115 fold
same,herfold2,"feature cpdID 29124, neutral mass 672.6836, RT 6.559082, no hit",22972 fold
same,herfold2,[16],−1.1913 fold
same,herfold2,[17],−1.048 fold
same,herfold2,"feature cpdID 33162, neutral mass 791.2316, RT 6.496594, no hit",−1.037 fold
same,herfold2,[18],−1.182 fold
same,herfold2,"feature cpdID 37922, neutral mass 932.7613, RT 6.562271, no hit",25460 fold
same,herfold2,[19],−1.013 fold
same,herfold2,[20],−1.043 fold
same,herfold2,[21],−32248 fold
same,herfold2,"feature cpdID 45209, neutral mass 1300.402, RT 6.501484, no hit",−1.045 fold
same,herfold2,"feature cpdID 45486, neutral mass 1322.385, RT 6.518707, no hit",−1.0661 fold

# From patent publication US20110081675A1, “Metabolic Biomarkers Of Drug-Induced Cardiotoxicity” (WISCONSIN ALUMNI RESEARCH FOUNDATION, priority 2009, published 2011)
